From patent US8501794B2, “Compounds as cannabinoid receptor ligands” (priority 2007, dated 2013)

By UniProt entry, the sequences of proteins in these tests, tags left out. Where a name states a change or a piece, a line headed by the entry shows the natural chain unless it says otherwise.
UniProt P34972, whole entry, looked up: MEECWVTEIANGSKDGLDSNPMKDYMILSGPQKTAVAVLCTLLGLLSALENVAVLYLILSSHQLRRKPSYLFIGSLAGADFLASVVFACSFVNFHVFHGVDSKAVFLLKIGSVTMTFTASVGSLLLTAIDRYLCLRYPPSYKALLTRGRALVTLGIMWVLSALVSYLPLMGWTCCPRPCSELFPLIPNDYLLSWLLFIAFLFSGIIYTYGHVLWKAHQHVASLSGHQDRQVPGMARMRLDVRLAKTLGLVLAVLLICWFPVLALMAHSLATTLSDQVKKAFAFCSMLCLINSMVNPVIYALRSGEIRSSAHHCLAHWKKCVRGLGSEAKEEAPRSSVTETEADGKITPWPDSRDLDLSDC
UniProt Q9QZN9: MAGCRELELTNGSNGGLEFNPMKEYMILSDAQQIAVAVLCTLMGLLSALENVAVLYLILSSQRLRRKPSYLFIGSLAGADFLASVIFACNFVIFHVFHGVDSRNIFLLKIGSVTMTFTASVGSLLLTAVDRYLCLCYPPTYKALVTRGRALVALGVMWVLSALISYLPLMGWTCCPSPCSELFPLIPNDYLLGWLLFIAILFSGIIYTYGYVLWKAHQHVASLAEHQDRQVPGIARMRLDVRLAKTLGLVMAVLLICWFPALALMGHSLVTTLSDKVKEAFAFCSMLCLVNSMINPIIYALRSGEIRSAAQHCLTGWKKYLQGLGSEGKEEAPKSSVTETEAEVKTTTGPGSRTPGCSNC

Experiments:
[1] = target: human CB2 receptors (Homo sapiens, UniProt P34972); test: human CB2 radioligand binding assay ([3H]CP-55,940 competition); conditions: read-out: human CB2 (Ki); HEK293 membranes, 0.5 nM [3H]CP-55,940
[2] = target: T1, rat CB2 (Rattus norvegicus, UniProt Q9QZN9); test: rat CB2 radioligand binding assay ([3H]CP-55,940 competition); conditions: read-out: rat CB2 (Ki); HEK293 membranes, 0.5 nM [3H]CP-55,940
[3] = target: T1, rat CB2; test: rat CB2 cyclase functional assay (HitHunter cAMP, HEK cells); assay type: cell-based; conditions: read-out: rat CB2 cyclase (EC50), forskolin 18 μM

COc1ccc(Cl)cc1C(=O)/N=c1\sn(C(C)(C)C)c2c1CC(C(F)(F)F)CC2 (stereo not drawn)
Ki [1]: 240 pM
Ki [2]: 300 pM
EC50 [3]: 210 pM
